For experiment [1], the target named is T1, human GLP-1R (Homo sapiens, UniProt P43220). Nature of the experiment: Human GLP-1 Receptor HEK293 Cell cAMP Assay, 581 fmol/mg expression density. To be noted: HEK293 cell line, 581 fmol/mg GLP-1R, value (SEM, n); for % Stim Max: relative to maximal response of human GLP-1(7-36)NH2; for EC50: read-out: relative EC50, intracellular cAMP response, 30 min at 37 °C.

The chains behind the UniProt entries cited, without tags or fusion partners. Residues count along the entry.
UniProt P43220, 24-463 limits assumed: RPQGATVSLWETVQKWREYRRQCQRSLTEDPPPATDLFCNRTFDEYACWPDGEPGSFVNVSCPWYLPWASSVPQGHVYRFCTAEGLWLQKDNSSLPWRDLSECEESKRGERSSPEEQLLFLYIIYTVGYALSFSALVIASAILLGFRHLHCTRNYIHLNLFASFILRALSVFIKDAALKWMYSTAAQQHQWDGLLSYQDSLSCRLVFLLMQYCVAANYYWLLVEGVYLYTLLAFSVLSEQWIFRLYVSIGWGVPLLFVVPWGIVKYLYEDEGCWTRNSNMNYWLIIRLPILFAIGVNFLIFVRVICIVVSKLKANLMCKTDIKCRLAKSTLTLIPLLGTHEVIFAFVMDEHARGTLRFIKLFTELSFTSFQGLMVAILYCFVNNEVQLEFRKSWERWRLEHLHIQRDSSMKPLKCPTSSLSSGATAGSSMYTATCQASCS

Experiment [2] has as its target T1, human GLP-1R. Nature of the experiment: Human GLP-1 Receptor HEK293 Cell cAMP Assay, 104 fmol/mg expression density. To be noted: for Emax / % Stim Max / EC50: HEK293 cell line, 104 fmol/mg GLP-1R; for Emax: fitted top of curve relative to maximal response to GLP-1(7-36)NH2, arithmetic mean ± SEM; for % Stim Max: point of maximal stimulation relative to maximal response of GLP-1(7-36)NH2, arithmetic mean (SEM, n); for EC50: read-out: relative EC50, intracellular cAMP response, 30 min at 37 °C, geometric mean (SEM, n); for potency compared with native GLP-1(7-36)NH2 peptide: 104 fmol/mg assay.

The test system of experiment [3] is mice expressing human GLP-1R. Nature of the experiment: In vivo Intraperitoneal Glucose Tolerance Test in Human GLP-1R Knock-In Mice.

Structures are written as SMILES.

In general, EC50 refers to the concentration at which the effect is half-maximal. The Emax is the greatest response seen or fitted, relative to the assay's reference. For the molecule `COc1cc(C(=O)O)cc2c1nc(Cc1cc(F)c(-c3cccc(OCc4ccn(C)n4)n3)cc1F)n2C[C@@H]1CCO1`, at human GLP-1R [1], the “% Stim Max” value is 118 (4.46, n = 4) % and the EC50 is 25.7 nM. Also, at human GLP-1R [2], the Emax worked out at 72 ± 3%; the “% Stim Max” value is 81.9 (2.95, n = 4) %; the EC50 came to 125 nM.

`COc1cc(C(=O)O)cc2c1nc(Cc1cc(F)c(-c3cccc(OCc4cnn(C)n4)n3)cc1F)n2C[C@@H]1CCO1`: on human GLP-1R [1], the “% Stim Max” value was 126 (4.66, n = 3) % and the EC50 worked out at 37.5 nM. Moreover, on human GLP-1R [2], the maximum response (Emax) was determined as 71 ± 3%; the “% Stim Max” value was 84.3 (2.62, n = 3) %; the EC50 stood at 147 nM.

With `COc1cc(C(=O)O)cc2c1nc(Cc1cc(F)c(-c3cccc(OCc4ccc(C(N)=O)nc4C)n3)cc1F)n2C[C@@H]1CCO1`, on human GLP-1R [1], the “% Stim Max” value is given as 104 (6.13, n = 4) % and the EC50 came to 35.2 nM. Also, on human GLP-1R [2], the Emax is reported as 66 ± 3%; the “% Stim Max” value is 77.4 (4.52, n = 4) %; the EC50 came out at 131 nM.

On to `COc1cc(C(=O)O)cc2c1nc(Cc1cc(C)c(-c3cccc(OCc4ccc(C#N)cc4F)n3)cc1F)n2C[C@@H]1CCO1`, for which the “% Stim Max” value on human GLP-1R [1] is 125 (3.95, n = 4) %. Besides, the “oral availability and potency as GLP-1R agonist in mice” value in experiment [3] (human GLP-1R knock-in mice, IPGTT) is “orally available potent GLP-1R agonist in mice”. Further, in experiment [3] (oral, overnight fasted mice, glucose 2 g/kg i.p. one hour post-dose, AUC of blood glucose over two hours, 95% confidence interval), the “Blood glucose lowering ED50” value is 8 µg/kg. Moreover, on human GLP-1R [2], the “potency compared with native GLP-1(7-36)NH2 peptide” value was “comparable potency”; the maximal response (Emax) is 74 ± 3%; the “% Stim Max” value is on record as 82.7 (3.85, n = 4) %; the EC50 was determined as 0.499 nM.

For `COc1cc(C(=O)O)cc2c1nc(Cc1cc(F)c(-c3cccc(OCc4ccc(C#N)cc4F)n3)cc1F)n2C[C@@H]1CCO1`, at human GLP-1R [1], the “% Stim Max” value is on record as 120 (3.39, n = 5) %. At human GLP-1R [2], the “potency compared with native GLP-1(7-36)NH2 peptide” value was “comparable potency”; the maximal response (Emax) is on record as 80 ± 2%; the “% Stim Max” value is 90.9 (2.98, n = 5) %; the 50% effective concentration (EC50) turned out to be 0.682 nM.

On to `COc1cc(C(=O)O)cc2c1nc(Cc1cc(F)c(-c3cccc(OCc4ccc(C#N)nc4)n3)cc1F)n2C[C@@H]1CCO1`, for which, at human GLP-1R [1], the “% Stim Max” value is reported as 118 (2.96, n = 5) % and the EC50 amounted to 1.91 nM. Also, on human GLP-1R [2], the Emax is on record as 81 ± 3%; the “% Stim Max” value is 87.5 (1.54, n = 5) %; the EC50 was determined as 4.45 nM.

For `COc1cc(C(=O)O)cc2c1nc(Cc1cc(F)c(-c3cccc(OCc4ccc(-n5cncn5)cc4)n3)cc1F)n2C[C@@H]1CCO1`, on human GLP-1R [1], the “% Stim Max” value is 117 (3.04, n = 3) %. In addition, on human GLP-1R [2], the maximum response (Emax) is listed as 75 ± 4%; the “% Stim Max” value was 84.4 (5.15, n = 5) %; the EC50 came to 1.44 nM.

For `COCCOc1cc(C(=O)O)cc2c1nc(Cc1cc(F)c(-c3cccc(OCc4ccc(=O)n(C)c4)n3)cc1F)n2C[C@@H]1CCO1`, at human GLP-1R [1], the “% Stim Max” value is 105 (4.63, n = 4) % and the EC50 amounted to 113 nM. Besides, at human GLP-1R [2], the Emax was found to be 70 ± 5%; the “% Stim Max” value is listed as 74.7 (5.06, n = 4) %; the EC50 stood at 495 nM.

Consider `COc1cc(C(=O)O)cc2c1nc(Cc1cc(F)c(-c3cccc(OCc4ccc(C#N)cn4)n3)cc1F)n2C[C@@H]1CCO1`, for which, at human GLP-1R [1], the “% Stim Max” value is listed as 123 (2.13, n = 4) % and the EC50 is 2.16 nM. Further, on human GLP-1R [2], the maximum response (Emax) is 80 ± 1%; the “% Stim Max” value is reported as 89.2 (2.36, n = 4) %; the EC50 amounted to 6.96 nM.

Consider `COc1cc(C(=O)O)cc2c1nc(Cc1cc(F)c(-c3cccc(OCc4ccc(C#N)cc4C)n3)cc1F)n2C[C@@H]1CCO1`, for which the “% Stim Max” value on human GLP-1R [1] is given as 117 (6.8, n = 3) %. Also, at human GLP-1R [2], the maximal response (Emax) was determined as 75 ± 3%; the “% Stim Max” value is reported as 82.9 (3.52, n = 5) %; the 50% effective concentration (EC50) was 1.37 nM.

Regarding `COc1cc(C(=O)O)cc2c1nc(Cc1cc(F)c(-c3cccc(OCc4ccc(C#N)nc4C)n3)cc1F)n2C[C@@H]1CCO1`, at human GLP-1R [1], the “% Stim Max” value is 121 (4.77, n = 4) % and the EC50 is 3.18 nM. Besides, at human GLP-1R [2], the Emax stood at 70 ± 5%; the “% Stim Max” value is 87.9 (3.76, n = 4) %; the 50% effective concentration (EC50) amounted to 10.6 nM.

As to `COCCOc1cc(C(=O)O)cc2c1nc(Cc1cc(F)c(-c3cccc(OCc4ccc(C#N)cc4F)n3)cc1F)n2C[C@@H]1CCO1`, the “% Stim Max” value on human GLP-1R [1] is recorded as 123 (3.72, n = 4) %. In addition, on human GLP-1R [2], the “potency compared with native GLP-1(7-36)NH2 peptide” value was “comparable potency”; the maximum response (Emax) worked out at 79 ± 3%; the “% Stim Max” value is recorded as 91.6 (6.35, n = 4) %; the EC50 worked out at 0.724 nM.

For the molecule `COc1cc(C#N)ccc1COc1cccc(-c2cc(F)c(Cc3nc4c(OC)cc(C(=O)O)cc4n3C[C@@H]3CCO3)cc2F)n1`, the “% Stim Max” value on human GLP-1R [1] was 125 (5.29, n = 5) %. Besides, on human GLP-1R [2], the “potency compared with native GLP-1(7-36)NH2 peptide” value is “comparable potency”; the maximal response (Emax) worked out at 78 ± 4%; the “% Stim Max” value was 87.6 (3.51, n = 6) %; the concentration for a half-maximal effect (EC50) is 0.48 nM.

Turning to `COc1cc(C(=O)O)cc2c1nc(Cc1cc(F)c(-c3cccc(OCc4ccon4)n3)cc1F)n2C[C@@H]1CCO1`, at human GLP-1R [1], the “% Stim Max” value is on record as 110 (2.04, n = 4) % and the EC50 came to 52.4 nM. Moreover, on human GLP-1R [2], the Emax was 68 ± 2%; the “% Stim Max” value is recorded as 76 (1.83, n = 4) %; the concentration for a half-maximal effect (EC50) was found to be 220 nM.

Take `COc1cc(C(=O)O)cc2c1nc(Cc1cc(F)c(-c3cccc(OCc4ccc(C#N)s4)n3)cc1F)n2C[C@@H]1CCO1`: at human GLP-1R [1], the “% Stim Max” value was 116 (3.39, n = 3) % and the EC50 was 0.785 nM. In addition, at human GLP-1R [2], the maximal response (Emax) is listed as 68 ± 2%; the “% Stim Max” value is listed as 75.6 (1.62, n = 4) %; the EC50 worked out at 3.37 nM.

Values taken from patent US20260382585A1, “GLUCAGON-LIKE PEPTIDE 1 RECEPTOR AGONISTS” (published 2026).
